Source: ChEMBL document CHEMBL2062486, “HIV-1 Integrase Inhibitor-Inspired Antibacterials Targeting Isoprenoid Biosynthesis” (ACS Med Chem Lett, 2012)

Assay: Inhibition of Staphylococcus aureus UPPS-mediated undecaprenyl pyrophosphate synthesis by continuous spectrophotometric assay

Compound: CCCCCCOc1cccc(Cn2ccc(O)c(C(=O)O)c2=O)c1
- pIC50: 5.09

pIC50: −log10 of the molar value.
